Nrf2 inh – blocks Nrf2 signaling; A549 ARE-Fluc reporter, luciferase luminescence, 18-24 h; Potency, µM (top dose mostly 46 µM), actives largely listed as inhibitors; 2.1% of 360,000 active; AID 504444; further: nearly all actives have a fitted effect of over 60% in size
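Concentration-response testing used A549 ARE_Fluc cells at 5000 cells/well. Following an 18-24 h compound incubation, viability was read by fluorescence (Ex 405/Em 525) and luciferase output by luminescence.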
Nrf2 activator – Nrf2 pathway activation; 0.31% of 410,000 active; AREc32 ARE-luciferase reporter (MCF7-derived line), luminescence, 24 h; Potency, µM (series often up to 46.1 µM), most hits filed as activators; further: nearly all actives have a fitted effect of over 65% in size
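Luminescent ARE reporter assay in AREc32_Fluc cells: overnight plating at 37 deg C, 24 hr compound incubation, Steady-Glo added, 30 min RT before reading.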
ClpP mod – qHTS Assay for Activators of ClpP; purified B. subtilis ClpP, FRET peptide cleavage, 20 min; Potency, µM (titrated, usually from 57.5 µM); 1.9% of 340,000 active; AID 651965, 2013; active means well fitted falling curve with a large enough effect; inconclusive means small, poorly fitted or top-dose-only effect; inactive means no such curve, though single readings can be large or run the other way; further: the source files actives as falling curves though it sought activators and does not explain the sign; nearly all actives have a fitted effect of over 65% in size
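FRET quenching reversal measured ClpP activation: 10 microg/mL B. subtilis ClpP at pH 8 with the FRET-FV decapeptide, read at 430 nm after 320 nm excitation. The 20-min minus 0-min signal was scaled between DMSO/no-enzyme wells and ADEP (5.8 microM final).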
miR-21 reporter – miR-21 reporter, rising signal | AID 2288 | HeLa miR-21 FLuc reporter, luciferase, 48 h | 340,000 tested, under 10 active | Potency, µM (titrated, usually from 38.3 µM); active = well fitted rising curve with a large enough effect; inconclusive = small, poorly fitted or top-dose-only effect; inactive = no such curve, though single readings can be large or run the other way;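 also: miR-21 action dims this reporter so a rising signal means less miR-21 action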
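HeLa miR-21-FLuc reporter line, endogenous miR-21; 2000 cells/well in DMEM/10% FBS; compound titration up to ~40uM final, 48 h, 37 degree Celsius; luciferase detection reagent, 15 min lysis, CCD luminescence.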
A549 viability – A549 cytotoxicity, counter-screen for Nrf2 inhibitors; A549 ARE-Fluc cells, CellTiter-Fluor viability, 18-24 h; Potency, µM (top dose mostly 46 µM), hits mostly inhibitors; 0.16% of 390,000 active
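A549 ARE_Fluc cells in 5% FBS OPTI-MEM were exposed to compounds in concentration-response for 18-24 h at 37 deg C. Viability was read by CellTiter-Fluor fluorescence (Ex 405/Em 525) after 30 min, before the luciferase read.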
p53 reactivator – mutant p53 re-activation in reporter cells | H1299 p53-A138V BP100-luciferase reporter, luminescence, 24 h | Potency, µM (titrated, usually from 92.2 µM), hits mostly activators | 0.063% of 320,000 active | AID 504706; further: nearly all actives have a fitted effect of over 45% in size
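H1299 (p53-null), stable ts p53-A138V + BP100-Luc; 1000 cells/well, Opti-MEM/10% FBS; cpd 4 pt, 1:5; 24 h, 37 deg C, 5% CO2; detection reagent 10 min RT; luminescence.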
Of the large screens only hits and unclear results are named; the others gave an inactive call. Only some compounds are listed: those with a hit (about 3.7% of all), similar ones and a draw of the others. Unless noted, the call rests on the fitted dose curve; in most records, active means well fitted curve in the direction sought with a large enough effect; inconclusive means small, poorly fitted or top-dose-only effect, or another doubt; inactive means no such curve, though single readings can be large; an effect the other way counts as inactive or inconclusive.

CCNc1cccc(S(=O)(=O)N2CCN(S(=O)(=O)c3ccc4c(c3)OCCO4)CC2)c1	Nrf2 inh inconclusive (no result: Nrf2 activator, ClpP mod, miR-21 reporter, p53 reactivator)
Cc1ccc(S(=O)(=O)N2[C@@H](c3ccc(C(C)(C)C)cc3)C(C(=O)O)=CC[C@H]2c2cccs2)cc1	Nrf2 inh inconclusive (no result: miR-21 reporter)
Cc1ccc([C@@H]2CC=C(C(=O)O)[C@H](c3ccc(C(C)(C)C)cc3)N2S(=O)(=O)c2ccc(C)cc2)cc1	Nrf2 inh 18µM (no result: miR-21 reporter)
CCCCC(=O)Nc1nnc(SCc2cc(=O)n3cc(C)ccc3n2)s1	none (no result: Nrf2 inh, p53 reactivator)
CCN(c1ccccc1)S(=O)(=O)c1ccc(C(=O)Nc2nnc(C3CC3)o2)cc1	Nrf2 inh 12µM, miR-21 reporter inconclusive, A549 viability inconclusive (no result: ClpP mod)
CCN(c1ccccc1)S(=O)(=O)c1ccc(C(=O)Nc2nnc(CSC)o2)cc1	Nrf2 inh 12µM, miR-21 reporter inconclusive, A549 viability inconclusive
CCN(c1ccccc1)S(=O)(=O)c1ccc(C(=O)Nc2nnc(COC)o2)cc1	Nrf2 inh 23µM
COc1ccc(/C=N/N=C2/NC(=O)C(CC(=O)NC(C)C)S2)cc1 (stereo not given)	ClpP mod 14µM
O=S(=O)(Nc1cc(Cl)ccc1-n1cncn1)c1cc(Br)ccc1Br	Nrf2 inh 13µM, A549 viability inconclusive (no result: miR-21 reporter)
COc1ccc(C(=O)N2c3nc(-c4ccco4)nn3C3(CCCCC3)[C@@H]3CCCC[C@@H]32)cc1OC	none (no result: p53 reactivator)
Cc1ccc(-n2ncc3c2CC(C)(C)CC3NC(=O)CCN2CCCO2)cc1 (stereo not given)	Nrf2 inh inconclusive
CC1(C)Cc2c(cnn2-c2ccc(F)cc2)C(NC(=O)CCN2CCCCO2)C1 (stereo not given)	ClpP mod 25µM
Cc1ccc(C)c(NC(=O)CSc2nnc(NC(=O)Nc3ccccc3)s2)c1	none (no result: Nrf2 inh, p53 reactivator)
Cc1cccc(CCNC(=O)CN(c2ccc(C(C)C)cc2)S(=O)(=O)c2c(C)nn(C)c2C)c1	none (no result: p53 reactivator)
O=S1(=O)CC(O)C(N2CCCCC2)C1 (stereo not given)	ClpP mod 11µM (no result: Nrf2 inh)
Cc1cc(Cl)ccc1NC(=S)NCCCO	none
Cc1ccc(Cl)cc1NC(=S)NCCCSC1CCCCC1	Nrf2 inh 26µM, A549 viability inconclusive (no result: ClpP mod)
CCOC(=O)C1CCCN(C(=O)c2ccc3c(c2)N(Cc2cccc(Cl)c2)C(=O)c2ccccc2S3(=O)=O)C1 (stereo not given)	none (no result: Nrf2 inh, p53 reactivator)
COc1c(N2CCN[C@H](C)C2)c(F)cc2c(=O)c(C(=O)O)cn(C3CC3)c12	none
COc1c(N2CCN(C(=S)NCc3ccccc3)C(C)C2)c(F)cc2c(=O)c(C(=O)O)cn(C3CC3)c12 (stereo not given)	Nrf2 inh 23µM, ClpP mod inconclusive, miR-21 reporter inconclusive, A549 viability inconclusive
O=S(=O)(c1ccc2c(c1)OCCO2)N1CCN(S(=O)(=O)c2ccccc2Cl)CC1	none (no result: Nrf2 activator, ClpP mod, miR-21 reporter, p53 reactivator)
CN1N=C(C(=O)N=c2sc3ccccc3n2C)CCC1=O	Nrf2 inh inconclusive (no result: ClpP mod, miR-21 reporter, p53 reactivator)
O=C1CCCN1CCC(=O)N1CCCC(Nc2ccc(F)cc2)C1 (stereo not given)	ClpP mod 28µM
Cc1ccc(C(=O)c2coc3cc([N+](=O)[O-])c(O)c([N+](=O)[O-])c23)cc1	Nrf2 inh inconclusive, A549 viability 21µM
CN(c1ccc(C(=O)NCCc2ccccc2)cc1)S(C)(=O)=O	Nrf2 inh inconclusive
CN(c1ccc(C(=O)NCCSC(C)(C)C)cc1)S(C)(=O)=O	Nrf2 inh inconclusive, ClpP mod 10µM, p53 reactivator inconclusive
CCN(CC)CCN1CCN(c2cnc(C)cn2)CC1	ClpP mod inconclusive (no result: Nrf2 inh, miR-21 reporter, A549 viability, p53 reactivator)
CCc1cc2c3c(c(=O)oc2cc1OC)CCCC3	ClpP mod 35µM
COc1ccc(CCNC(c2ccc(F)cc2)c2nnc(-c3ccccc3Cl)o2)cc1OC (stereo not given)	Nrf2 inh inconclusive (no result: p53 reactivator)
O=C(NC1CCCCC1)C(c1cccnc1)N(C(=O)CCl)c1cccc(Cl)c1 (stereo not given)	Nrf2 inh inconclusive, Nrf2 activator 13µM
Cc1ccc(CCNC(=O)c2c3c(nc4ccccc24)C(=O)N(C2CCCCC2)C3)cc1	A549 viability inconclusive (no result: p53 reactivator)
CCOC(=O)N1CCN(c2nc(C(F)(F)F)nc3c(C)cc(C)cc23)CC1	Nrf2 inh 23µM, ClpP mod inconclusive (no result: p53 reactivator)
COc1cc(-c2cc(-c3nnco3)c3ccccc3n2)cc(OC)c1OC	ClpP mod 13µM
c1ccc(-c2cc(-c3nnco3)c3ccccc3n2)nc1	none (no result: ClpP mod)
CCOC(=O)c1oc2cc(O)cc(C)c2c1C	ClpP mod 13µM (no result: miR-21 reporter, p53 reactivator)
CCOC(=O)Cc1c(C)c2c(O)cc(O)cc2oc1=O	ClpP mod 25µM, A549 viability inconclusive (no result: Nrf2 inh)
Cc1cc(O)c2c(C)c(CC(=O)N3CCCCC3)c(=O)oc2c1	Nrf2 inh inconclusive (no result: p53 reactivator)
CCOC(=O)Cc1c(C)c2ccc(N(CC)CC)cc2oc1=O	ClpP mod 22µM
CCN(CC)c1ccc2c(C)c(Cl)c(=O)oc2c1	A549 viability inconclusive (no result: ClpP mod)
CCOC(=O)c1oc2cc(C)cc(C)c2c1C	none
CCN(CC)c1ccc2c(c1)oc(=O)c1c(Cl)cc(=O)oc12	Nrf2 activator 8.9µM, A549 viability inconclusive
C[C@]12c3[nH]c4cc(-c5ccco5)ccc4c3CCN1C(=O)[C@@H](CC(=O)NCc1cccc(C(F)(F)F)c1)C[C@@H]2C(=O)N1CCCCC1	Nrf2 inh inconclusive, A549 viability inconclusive (no result: miR-21 reporter)
O=C(Nc1ccc(C(=O)N2CCN(c3ccccc3F)CC2)cc1)c1nsc2ccccc12	none (no result: Nrf2 inh, p53 reactivator)
CC(=O)Nc1ccc(NC(=O)c2ccc(-n3c(C)ccc3C)cc2)cc1	p53 reactivator 25µM
Cc1ccc(C)n1-c1ccc(NC(=O)c2ccccc2)cc1	none
CN(C)CCCN1c2ccc([N+](=O)[O-])cc2CCc2cc([N+](=O)[O-])ccc21	none (no result: ClpP mod, miR-21 reporter, p53 reactivator)
Cc1c(Cl)cccc1NC(CC(=O)c1ccccc1)C(=O)O (stereo not given)	Nrf2 activator 16µM, ClpP mod 25µM, p53 reactivator inconclusive
O=C(CC(Nc1ccccc1Cl)C(=O)O)c1ccccc1 (stereo not given)	Nrf2 inh inconclusive, Nrf2 activator inconclusive, p53 reactivator inconclusive
COc1cc2nc(N3CCCN(C)CC3)nc(N(C)C)c2cc1OC	none (no result: Nrf2 inh, Nrf2 activator, miR-21 reporter, A549 viability, p53 reactivator)
CCN(c1ccc(C)cc1)S(=O)(=O)c1nnc(NC(=O)C2CCCCC2)s1	Nrf2 inh inconclusive (no result: p53 reactivator)
O=C(CN1C(=O)COc2ccc(S(=O)(=O)N3CCOCC3)cc21)N1CCN(c2ccccc2F)CC1	none (no result: p53 reactivator)

Screening results (PubChem BioAssay)
